From patent publication US7084136B2, “Drug composition antagonistic to both PGD2/TXA2 receptors” (Shionogi & Co., Ltd., priority 2000, dated 2006)
Like-named read-outs stand apart in the source and are kept apart here.

Sequences of proteins named here, by UniProt entry; tags and fusion partners are left off.
UniProt P21731, whole entry: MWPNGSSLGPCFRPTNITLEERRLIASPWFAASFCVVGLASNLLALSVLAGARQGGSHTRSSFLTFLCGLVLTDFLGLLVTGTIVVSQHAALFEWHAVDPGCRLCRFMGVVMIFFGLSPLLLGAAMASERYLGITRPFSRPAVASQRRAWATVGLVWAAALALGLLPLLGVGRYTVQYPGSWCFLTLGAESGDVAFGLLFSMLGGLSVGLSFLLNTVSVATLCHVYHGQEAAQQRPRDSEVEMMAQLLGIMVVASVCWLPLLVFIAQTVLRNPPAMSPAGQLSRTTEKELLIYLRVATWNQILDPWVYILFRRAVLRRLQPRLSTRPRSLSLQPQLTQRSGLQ
UniProt Q13258, whole entry: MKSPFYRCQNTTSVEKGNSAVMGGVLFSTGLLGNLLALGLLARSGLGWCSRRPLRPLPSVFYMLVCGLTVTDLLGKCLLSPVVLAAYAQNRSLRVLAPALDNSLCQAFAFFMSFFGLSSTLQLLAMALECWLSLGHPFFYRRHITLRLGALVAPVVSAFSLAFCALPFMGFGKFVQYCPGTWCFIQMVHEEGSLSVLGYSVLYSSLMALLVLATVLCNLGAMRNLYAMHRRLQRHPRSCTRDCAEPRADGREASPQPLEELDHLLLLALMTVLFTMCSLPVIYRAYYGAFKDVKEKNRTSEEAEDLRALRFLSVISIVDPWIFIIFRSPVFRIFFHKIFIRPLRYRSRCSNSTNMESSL

Columns and labels:
PGD2 receptor [1] = assay: Acceleration of vascular permeability of conjunctiva induced by PGD2 (Evans blue dye leakage)
Description: Acceleration of Vascular Permeability of Conjunctiva Induced by PGD2 and U-46619
Using male Hartley guinea pigs, PGD2- and TxA2 receptor-mediated increase in conjunctival vascular permeability was produced by instillation of each 10 μl solution of either 0.1% PGD2 or U-46619 (TXA2 receptor agonist) to the both eyes without anesthetization. Immediately after that, Evans blue dye (20 mg/kg) was intravenously injected. 30 min after the challenge, guinea pigs were sacrificed by bleeding under anesthesia with Pentobarbital (30 mg/kg, i.p.) and the tissue of conjunctiva was removed. The dye leaked into the tissue was extracted in formamide 3 ml at 60° C. for more than 24 h, and then centrifuged. The absorbance of the supernatant was measured at 620 nm. The amount of dye was calculated from the calibration curve of Evans blue dye. Each compound was suspended in 0.5% methyl-cellulose and administrated orally at 1 h before the challenge. The antagonistic activity was evaluated by the inhibition ratio against the dye leaked into conjunctiva caused by PGD2 or U-46619 at each dose and then a 50% effective dose of inhibition (ED50 value) of each compound was calculated.

Male Hartley guinea pigs = assay: Antigen-induced bronchial hyperresponsiveness (acetylcholine PD200, OVA-sensitized guinea pigs)
Description: Comparative Experiment 2 Antigen-Induced Bronchial Hyperresponsiveness
Male Hartley guinea pigs were actively sensitized to ovalbumin (OVA) by inhalation of aerosolized solution of 1% ovalbumin twice at a week interval. One week after the second sensitization, the animals were treated with antihistamine, diphenhydramine (10 mg/kg, i.p.), and then challenged with 1% OVA aerosol for 5 min. Twenty four hours later, acetylcholine at doses at 3.13, 6.25, 12.5, 25, 50 and 100 micro g/kg was sequentially injected into the animals which were anesthetized with pentobarbital (30 mg/kg, i.p.). The bronchoconstriction induced by each dose of acetylcholine was monitored by the modified method of Konzett-Rössler technique, and made a dose-response curve of acetylcholine. Using the dose-response curve, the dose required for 200% increase in bronchoconstriction from baseline (PD200) was calculated in each animal and used as an indication of bronchial responsiveness. Compounds were orally administered 1 hour before antigen challenge. **: P<0.01 vs Vehicle(Dunnett's test), ^##: P<0.01 vs Vehicle(Student's t test).

TxA2 receptor [2] = assay: Acceleration of vascular permeability of conjunctiva induced by U-46619 (Evans blue dye leakage)
TXA2 receptor [3] = target: TXA2 receptor (Homo sapiens, UniProt P21731); assay: Binding activity to TXA2 receptor ([3H](+)-S-145 sodium salt, human platelet membrane fraction)
PGD2 receptor [4] = target: T1, PGD2 receptor (Homo sapiens, UniProt Q13258); assay: Antagonistic activity against PGD2 receptor using human platelet (inhibition of PGD2-induced cAMP increase)
Description: Experiment 3 Evaluation of Antagonistic Activity Against PGD2 Receptor
Receptor Using Human Platelet
Peripheral blood was collected from a healthy volunteer using a syringe in which 1/9 volume of a citric acid/dextrose solution was previously added. The sample was subjected to centrifugation at 1200 rpm for 10 min to obtain the supernatant (PRP: platelet rich plasma). The resultant PRP was washed 3 times with a washing buffer and the number of platelets was counted with a micro cell counter. A suspension adjusted to contain the platelets at a final concentration of 5×10^8/ml was warmed at 37° C., then subjected to the pre-treatment with 3-isobutyl-1-methylxanthine (0.5 mM) for 5 min. To the suspension was added a test compound diluted at various concentration, and 10 minutes later, 0.1 μM PGD2 was added to induce the reaction 2 minutes later, hydrochloric acid was added to terminate the reaction. The platelet was destroyed with an ultrasonic homogenizer. After centrifugation, the cAMP in the supernatant was determined by radioimmunoassay. PGD2 receptor antagonism of a drug was evaluated as follows: the inhibition rate regarding cAMP increased by the addition of PGD2 was determined at each concentration, and the concentration of the drug required for 50% inhibition (IC50) was calculated.

[5] = test system: Eosinophil Number in Bronchoalveolar Lavage Fluid; assay: Antigen-induced increase in the eosinophil number in bronchoalveolar lavage fluid
Description: Antigen-Induced Increase in the Eosinophil Number in Bronchoalveolar Lavage Fluid.
Bronchoalveolar lavage was performed with 10 mL of saline, after the animals were sensitized and challenged with antigen. The number of total cells in the recovered fluid was stained with Türk and counted using hemocytometer. *: P<0.05, **:P<0.01 vs Vehicle(Dunnett's test), ^##: P<0.01 vs Vehicle(Student's t test). ( ): inhibition %.

PGD2 receptor [6] = target: T1, PGD2 receptor; assay: Binding activity to PGD2 receptor ([3H]PGD2, human platelet membrane fraction)
Description: Experiment 1 Binding Activity to PGD2 Receptor
(1) Preparation of Human Platelet Membrane Fraction
Blood was collected using a plastic syringe containing 3.8% sodium citrate from the vein of healthy volunteers (adult male and female), then put into a plastic test tube and mixed by slow-reversion. The sample was then centrifuged at 1800 rpm, for 10 min at room temperature, and the supernatant containing PRP (platelet-rich plasma) was collected. The PRP was re-centrifuged at 2300 rpm, for 22 min at room temperature to obtain platelets. The platelets were homogenized using a homogenizer (Ultra-Turrax) followed by centrifugation 3 times at 20,000 rpm, 10 min at 4° C. to obtain a platelet membrane fraction. After protein determination, the membrane fraction was adjusted to 2 mg/ml and preserved in a refrigerator at −80° C. until using for the binding test.
(2) Binding to PGD2 Receptor
To a binding-reaction solution (50 mM Tris/HCl, pH 7.4, 5 mM MgCl2) (0.2 ml) were added the human platelet membrane fraction (0.1 mg) and 5 nM [^3H]PGD2 (115 Ci/mmol), and the mixture was reacted at 4° C. for 90 min. After the reaction, the mixture was filtered through a glass fiber filter paper and washed several times with cooled physiological saline, then the radioactivity retained on the filter paper was measured. The specific-binding ratio was calculated by subtracting the non-specific binding ratio which is the radioactivity similarly measured in the presence of 10 μM PGD2 from the total binding. The inhibitory activity of each compound was expressed as the concentration required for 50% inhibition (IC50), which was determined by depicting a substitution curve by plotting the binding ratio (%) in the presence of each compound, where the binding ratio in the absence of a test compound is 100%.

[7] = Change of plasma concentration of drug in rat (half life of the disappearance after i.v. administration); settings: Jcl-SD male rats, 0.5 to 2 mg/kg intravenously, unchanged compound
Description: Experiment 4 Change of Plasma Concentration of Drug in Rat
Compound (0.5 to 2 mg/kg) was administered intravenously to Jcl-SD male rats. The concentration of the unchanged compound was measured at 2, 5, 15, 30, 60, 120, and 240 min after the administration by the use of HPLC (determination limit; 0.05 μg/ml) and LC/MS/MS (determination limit; 0.001 μg/ml) and the half life of the disappearance was calculated.

[8] = summary of Table 80, oral 1 h before challenge, guinea pig
[9] = read-out: Binding activity to TXA2 receptor in human platelet membrane fraction IC50, human platelet membrane fraction, 2 nM [3H](+)-S-145 sodium salt
[10] = read-out: Inhibitory activity for the increase of cAMP caused by PGD2 in human platelet IC50, human platelet, 0.1 μM PGD2
[11] = 10 mg/kg, bronchoalveolar lavage fluid after antigen challenge
[12] = read-out: Binding activity to PGD2 receptor in human platelet membrane fraction IC50, human platelet membrane fraction

IC50 (TXA2 receptor [3]; [9])	IC50 (PGD2 receptor [4]; [10])	IC50 (PGD2 receptor [6]; [12])	SMILES	other results
2.2 nM	13 nM	1.3 nM	Cc1cccn1S(=O)(=O)c1ccc(C(=O)N[C@@H]2[C@@H](CCCCOCC(=O)O)C[C@H]3C[C@@H]2C3(C)C)s1	ED50 PGD2 (PGD2 receptor [1]; oral, 1 h before challenge, 0.1% PGD2 instillation, conjunctival dye leakage, guinea pigs): 0.043 mg/kg; inhibition of the increase in vascular permeability in conjunctiva by the stimulation with PGD2 (PGD2 receptor [1]; [8]): showed both responses; Log PD200 (Male Hartley guinea pigs; 10 mg/kg orally 1 hour before antigen challenge, acetylcholine dose for 200% increase in bronchoconstriction, 24 h after OVA challenge): 1.49 ··; inhibition of the induction of bronchial hyperresponsiveness (Male Hartley guinea pigs; summary of Table 74 to Table 76, oral, guinea pig): suppressed; ED50 TXA2 (U-46619) (TxA2 receptor [2]; oral, 1 h before challenge, 0.1% U-46619 instillation, conjunctival dye leakage, guinea pigs): 0.083 mg/kg; inhibition of the increase in vascular permeability in conjunctiva caused by U-46619 (TxA2 receptor [2]; [8]): showed both responses; IC50 (TXA2 receptor [3]; read-out: Experiment 2 Antagonistic activity against TXA2 receptor IC50, comparative experiment in accordance with Experiment 2): 2.2 nM; IC50 (PGD2 receptor [4]; read-out: Experiment 3 Antagonistic activity against PGD2 receptor IC50, comparative experiment in accordance with Experiment 3): 13 nM; Total cells [5, 11]: 18.29 ± 1.46 × 10^6 cells/animal; inhibition % (total cells in bronchoalveolar lavage fluid) [5, 11]: 36%; suppression of eosinophil infiltration ([5]; summary of Table 77 to Table 79, bronchoalveolar lavage fluid): significantly suppressed; IC50 (PGD2 receptor [6]; read-out: Experiment 1 Antagonistic activity against PGD2 receptor IC50, comparative experiment in accordance with Experiment 1): 1.3 nM
26 nM	100 nM	47 nM	Cc1cccn1S(=O)(=O)c1ccc(C(=O)N[C@@H]2[C@@H](CCCCCC(=O)O)C[C@H]3C[C@@H]2C3(C)C)s1	–
1.8 nM	73 nM	24 nM	CC1(C)[C@H]2C[C@H](CCCCOCC(=O)O)[C@@H](NC(=O)c3ccc(S(=O)(=O)c4cccs4)s3)[C@@H]1C2	–
3 nM	18 nM	73 nM	O=C(O)CCCCCC[C@H]1[C@@H]2CC[C@@H](C2)[C@@H]1NC(=O)c1ccc(S(=O)(=O)c2cccs2)s1	–
4.6 nM	35 nM	7.6 nM	O=C(O)CCCCCC[C@H]1[C@@H]2CC[C@@H](C2)[C@@H]1NC(=O)c1ccc(S(=O)(=O)n2cccc2)s1	–
1.2 nM	66 nM	27 nM	CC1(C)[C@H]2C[C@H](CCCCC(=O)O)[C@@H](NC(=O)c3ccc(S(=O)(=O)n4cccc4)s3)[C@@H]1C2	–
15 nM	15 nM	–	CC1(C)[C@H]2C[C@H](CCCC/C=C/C(=O)O)[C@@H](NC(=O)c3ccc(Sc4cccs4)s3)[C@@H]1C2	half life of the disappearance [7]: 1.12 h
30 nM	0.3 nM	7.9 nM	Cc1cccn1S(=O)(=O)c1ccc(C(=O)N[C@@H]2[C@@H](C/C=C\CCCC(=O)O)C[C@H]3C[C@@H]2C3(C)C)cc1	–
27 nM	21 nM	–	CC1(C)[C@H]2C[C@H](CCCCOCC(=O)O)[C@@H](NC(=O)c3ccc(Sc4cccs4)s3)[C@@H]1C2	half life of the disappearance [7]: 1.54 h
4.2 nM	57 nM	6.2 nM	Cc1cccn1S(=O)(=O)c1ccc(C(=O)N[C@@H]2[C@@H](CCCCCCC(=O)O)C[C@H]3C[C@@H]2C3(C)C)s1	–
0.6 nM	17 nM	5.3 nM	Cc1cccn1S(=O)(=O)c1ccc(C(=O)N[C@@H]2[C@@H](CCCCC(=O)O)C[C@H]3C[C@@H]2C3(C)C)s1	–
2.5 nM	20 nM	6.5 nM	Cc1cccn1S(=O)(=O)c1ccc(C(=O)N[C@@H]2[C@@H](C/C=C\COCC(=O)O)C[C@H]3C[C@@H]2C3(C)C)s1	–
21 nM	26 nM	–	O=C(O)COCCCC[C@H]1[C@@H]2CC[C@@H](C2)[C@@H]1NC(=O)c1csc2c(Cc3ccccc3)cccc12	half life of the disappearance [7]: 0.64 h
